What was measured:
[1] = biological target: T1, α1-acid glycoprotein (AGP) (Homo sapiens, UniProt P02763); assay: in vitro; conditions: Kd by CD far-UV (180–260), CD at 195 nm versus ligand concentration, Hill equation, unit from b19 and Figure 5
[2] = biological target: T1, α1-acid glycoprotein (AGP); assay type: binding; conditions: AGP with ligand
Description: The Hill fitting was performed with OriginLab.
The evaluation of molar enthalpies (ΔHm) and entropies (ΔSm) at the melting temperature for the melting process was calculated assuming a two-state native-to-unfolded model. The molar ratios at different temperatures were determined using the linear extrapolations of plateau at T >> Tm and T << Tm for the Boltzmann fitting curves, assuming that only denatured protein was present at T >> Tm and only native at T << Tm. The reversibility was assumed to be around Tm ± 5 °C, and the relative molar ratios for native and denatured species was used to determine the equilibrium constants and the associated Gibbs free energy (ΔGm, from ΔGm = −RT·lnK). Following the given relationship, ΔGm was supposed to be ~0 at the Tm (K^(Tm) ~ 1). ΔHm and ΔSm were calculated at Tm by interpolating with a linear model the ±5 °C region of the ΔGm vs. T curve around Tm, assuming the intercept corresponding to ΔHm, previous correction from °C to Kelvin, and the slope to −ΔSm, assuming a y = a − bx model, where ΔGm^(Tm) = ΔHm^(Tm) − TmΔSm^(Tm) at ΔGm^(Tm) = 0.
For the thermal denaturations, Boltzmann fitting with the equation y = y0 + A * (frac/(1 + exp ((x − x01)/k1)) + (1 − frac)/(1 + exp((x − x02)/k2))) was used. The SRCD spectra as a function of temperature were recorded with B23 module B with synchrotron operation at 300 or 350 mA, using rotating cell for thermal denaturation with 0.02 cm cell pathlength, 0.5 mm slit, 1 sec integration time, and 1 nm increment in the 260–180 nm spectral region.

Protein sequences, listed by entry. Tags and fused reporters are not part of them. Residues count along the entry.
UniProt P02763, 19-201: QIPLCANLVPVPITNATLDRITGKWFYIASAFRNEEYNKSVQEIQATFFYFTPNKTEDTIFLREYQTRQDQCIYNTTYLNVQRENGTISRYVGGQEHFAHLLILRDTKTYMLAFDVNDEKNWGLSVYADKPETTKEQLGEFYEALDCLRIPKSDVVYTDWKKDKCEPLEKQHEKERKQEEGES

With `Cc1c(N)nc([C@H](CC(N)=O)NC[C@H](N)C(N)=O)nc1C(=O)N[C@H](C(=O)N[C@H](C)[C@@H](O)[C@H](C)C(=O)N[C@H](C(=O)NCCc1nc(-c2nc(C(=O)NCCC[S+](C)C)cs2)cs1)[C@@H](C)O)[C@@H](O[C@@H]1O[C@@H](CO)[C@@H](O)[C@H](O)[C@@H]1O[C@H]1O[C@H](CO)[C@@H](O)[C@H](OC(N)=O)[C@@H]1O)c1c[nH]cn1` [A2, bleomycin A2] the Kd [1] was 1360 nM, the “Tm (°C) [A]” value ([2]; Boltzmann fitting of experimental data, 195 nm, AGP alone 52.3) was 59.4 °C and the “Tm (°C) [B]” value ([2]; T at which ΔGm,Tm = 0, 195 nm, AGP alone 52.9) was 59.5 °C. The “ΔHm, Tm” value ([2]; linear fitting around Tm, AGP alone 127.8) was 239.6 kJ^.mol^−1 and the “ΔSm, Tm” value ([2]; linear fitting around Tm, AGP alone 392.1) was 720.6 J·K^−1·mol^−1.
